The target of assay [1] is T1, α7 AChRs (Homo sapiens, UniProt P36544). The assay is described as follows: Chronic desensitization (16 h agonist, then ACh response) and calculated smoldering activation, α7 cell line. The assay is classed as cell-based. Set-up: expressed in transfected cells; grown in VPA and PBA. As to the method: To measure desensitization, plates were prepared as for agonist assays. Sixteen hours prior to the assay, serial dilutions of agonists, prepared in regular growth medium, were added to the plates. One hour before the assay, the membrane potential-sensitive fluorescent dye with 0.5 µM atropine was added to the wells. […] Each data point represents the average of peak values for individual dose response curves from 4–8 wells.
Data were graphed using GraphPad Prism software. Non-linear models (sigmoidal dose-response with variable slope or two site competition) were used to fit the concentration response curves. The EC50 and IC50 were calculated from the curves. Kaleidagraph software was used to determine Hill slopes and standard errors of the EC50 and IC50.
Responses for the three different AChRs are shown in Figures 3, 4, 5, 6, along with the dose response curves for activation (the same as shown in Figure 2). The range of concentrations at which both sustained activation and desensitization can occur (“smoldering activation”) was calculated by multiplying the acute response to agonists at each concentration by the fractional response remaining after desensitization.

Chains of the proteins cited; added tags and fusions are not shown. Residues count along the entry.
UniProt P36544, 23-502: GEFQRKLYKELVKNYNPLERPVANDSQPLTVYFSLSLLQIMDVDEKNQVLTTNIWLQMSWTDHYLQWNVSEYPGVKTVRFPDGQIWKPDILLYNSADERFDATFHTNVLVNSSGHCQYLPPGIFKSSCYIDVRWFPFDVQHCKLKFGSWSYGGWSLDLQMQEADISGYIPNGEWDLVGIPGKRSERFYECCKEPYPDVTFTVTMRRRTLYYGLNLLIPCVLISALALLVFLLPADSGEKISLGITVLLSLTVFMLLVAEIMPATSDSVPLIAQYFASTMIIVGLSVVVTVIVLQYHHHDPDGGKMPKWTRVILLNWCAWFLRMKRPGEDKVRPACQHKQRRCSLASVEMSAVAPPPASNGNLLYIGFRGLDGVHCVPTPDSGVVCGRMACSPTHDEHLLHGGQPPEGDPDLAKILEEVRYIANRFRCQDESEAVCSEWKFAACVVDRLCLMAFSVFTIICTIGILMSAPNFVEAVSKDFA

Assay [2] has as its target T1, α7 AChRs. As to the kind of experiment: Acute activation, FLEXStation membrane potential dye, α7/RIC-3 cell line. The assay is classed as cell-based. Set-up: expressed in transfected cells; grown in VPA and PBA. As to the method:
The parental cell line used for transfections was tsA201, derived from the human embryonic kidney cell line (HEK) 293 [33]. […] The cell line permanently expressing α3β4 AChRs has been described, [34]. A stable cell line expressing functional α7 AChRs was prepared by initially transfecting the tsA201 cell line with cDNA for α7 and subsequently transfecting with cDNA for the AChR-selective chaperone, human RIC-3.
Responses to nicotinic agonists were determined using a FLEXStation microplate fluorometer (Molecular Devices, Sunnyvale, CA) as described. For cell lines expressing α4β2 and α3β4 AChRs, the cells were plated at 10^5 cells/ml (100 µl/well) in black-walled clear-bottom 96 well plates (Costar, Fisher Scientific, Pittsbugh, PA), and incubated for 48 hours prior to assaying responses to various nicotinic agonists. […]
To measure responses to various nicotinic agonists, 100 µl of a fluorescent dye which is sensitive to changes in membrane potential (Molecular Devices) was added to the wells. […] Fluorescent responses were measured in the FLEX Station at 25°C, with an excitation wavelength of 530 nm and an emission wavelength of 565 nm. […]
Data were graphed using GraphPad Prism software. […] The EC50 and IC50 were calculated from the curves. […]

These results are taken from publication PMC3828267 (PLoS ONE, 2013).

Consider `c1cnc2cc3c(cc2n1)[C@@H]1CNC[C@H]3C1` [Varenicline, varenicline], for which the IC50 in assay [1] was 400 ± 50 nM. Besides, in assay [2], the EC50 was determined as 400 ± 20 nM.

One may read the IC50 as the concentration at which inhibition is half-maximal. One may read the EC50 as the concentration giving half of the maximal effect.
